B1: KCTD1 (full-length, residues 1-257) (natural protein, human, UniProt Q719H9 1-257, looked up)
chain: MSRPLITRSPASPLNNQGIPTPAQLTKSNAPVHIDVGGHMYTSSLATLTKYPESRIGRLFDGTEPIVLDSLKQHYFIDRDGQMFRYILNFLRTSKLLIPDDFKDYTLLYEEAKYFQLQPMLLEMERWKQDRETGRFSRPCECLVVRVAPDLGERITLSGDKSLIEEVFPEIGDVMCNSVNAGWNHDSTHVIRFPLNGYCHLNSVQVLERLQQRGFEIVGSCGGGVDSSQFSEYVLRRELRRTPRVPSVIRIKQEPLD
notes: KCTD1, full-length protein, residues 1-257; Gene bought from Sigma Aldrich, cloned into pETM11; also called wild-type KCTD1; Potassium Channel Tetramerization Domain protein 1; source: E. coli BL21(DE3), purified (His-trap, TEV digestion, Superdex 200); not shown: polyHis, N-terminal, cleaved
B2: N-terminal domain of the transcription factor AP-2α (AP-2α^NTD, residues 1-165) (domain or fragment, UniProt P05549 1-165, looked up)
chain: MLWKLTDNIKYEDCEDRHDGTSNGTARLPQLGTVGQSPYTSAPPLSHTPNADFQPPYFPPPYQPIYPQSQDPYSHVNDPYSLNPLHAQPQPQHPGWPGQRQSQESGLLHTHRGLPHQLSGLDPRRDYRRHEDLLHGPHALSSGLGDLSIHSLPHAIEEVPHVEDP
modifications: NT-647 reactive dye on primary amines (in the microscale thermophoresis only)
notes: transcription factor AP-2α, N-terminal region, residues 1-165; natively unfolded by CD; also called N-terminal region of AP-2α; source: recombinant, cells lysed in 8 M urea, purified (Ni-NTA, HPLC), lyophilized

How the values were obtained:
Conditions in all cases: both partners purified
[1] = target: B2; experiment: ITC; ITC200, 22 °C; KCTD1 or mutants (72 µM expressed as pentamer) titrated into AP-2α^NTD (7 µM); single-binding site model
[2] = target: B1; experiment: as above
[3] = target: B1; experiment: ELISA; 3 µM AP-2α^NTD coated; KCTD1 or single point mutants from 1.8 nM to 1.8 µM; detected with anti-KCTD1 antibody; apparent binding constant

Binder | dH [1] [kcal/mol] | stoichiometry N [1] | Kd [2] [nM] | Kd [3] [nM]
B1 | -20.2 ± 0.1 | ~1 | – | –
B2 | – | – | 850 ± 115 | 593 ± 69

Reference: PMC6642198, “Molecular basis of the scalp-ear-nipple syndrome unraveled by the characterization of disease-causing KCTD1 mutants” (Scientific Reports, 2019)
